The values that follow come from ChEMBL document CHEMBL4715718, “Methyl Protodioscin, a Steroidal Saponin, Inhibits Neointima Formation in Vitro and in Vivo” (J Nat Prod, 2016).

The test system of the assay is A7R5. Description: Antiproliferative activity against rat A7r5 cells assessed as reduction in cell viability after 24 hrs by MTT assay. It counts as functional, cell-based.

The structures appear in SMILES notation.

With `CO[C@]1(CC[C@@H](C)CO[C@@H]2O[C@H](CO)[C@@H](O)[C@H](O)[C@H]2O)O[C@H]2C[C@H]3[C@@H]4CC=C5C[C@@H](O[C@@H]6O[C@H](CO)[C@@H](O[C@@H]7O[C@@H](C)[C@H](O)[C@@H](O)[C@H]7O)[C@H](O)[C@H]6O[C@@H]6O[C@@H](C)[C@H](O)[C@@H](O)[C@H]6O)CC[C@]5(C)[C@H]4CC[C@]3(C)[C@H]2[C@@H]1C` [METHYLPROTODIOSCIN], the Activity entry is “Dose-dependent effect”.
